Patent US10259810B2, “N-sulfonylated pyrazolo[3,4-b]pyridin-6-carboxamides and method of use” (AbbVie S.à.r.l., priority 2015, dated 2019)
Read-outs that look alike come from different tables or passages of the source.

Sequences of proteins named here, by UniProt entry; tags and fusion partners are left off. A change or cut given only in a name is not applied to a line headed by its entry. A line that says so, or that is headed by a name, gives the form on record, which may keep a tag or linker.
UniProt P13569, with tags, fused parts or gaps DEL508-508: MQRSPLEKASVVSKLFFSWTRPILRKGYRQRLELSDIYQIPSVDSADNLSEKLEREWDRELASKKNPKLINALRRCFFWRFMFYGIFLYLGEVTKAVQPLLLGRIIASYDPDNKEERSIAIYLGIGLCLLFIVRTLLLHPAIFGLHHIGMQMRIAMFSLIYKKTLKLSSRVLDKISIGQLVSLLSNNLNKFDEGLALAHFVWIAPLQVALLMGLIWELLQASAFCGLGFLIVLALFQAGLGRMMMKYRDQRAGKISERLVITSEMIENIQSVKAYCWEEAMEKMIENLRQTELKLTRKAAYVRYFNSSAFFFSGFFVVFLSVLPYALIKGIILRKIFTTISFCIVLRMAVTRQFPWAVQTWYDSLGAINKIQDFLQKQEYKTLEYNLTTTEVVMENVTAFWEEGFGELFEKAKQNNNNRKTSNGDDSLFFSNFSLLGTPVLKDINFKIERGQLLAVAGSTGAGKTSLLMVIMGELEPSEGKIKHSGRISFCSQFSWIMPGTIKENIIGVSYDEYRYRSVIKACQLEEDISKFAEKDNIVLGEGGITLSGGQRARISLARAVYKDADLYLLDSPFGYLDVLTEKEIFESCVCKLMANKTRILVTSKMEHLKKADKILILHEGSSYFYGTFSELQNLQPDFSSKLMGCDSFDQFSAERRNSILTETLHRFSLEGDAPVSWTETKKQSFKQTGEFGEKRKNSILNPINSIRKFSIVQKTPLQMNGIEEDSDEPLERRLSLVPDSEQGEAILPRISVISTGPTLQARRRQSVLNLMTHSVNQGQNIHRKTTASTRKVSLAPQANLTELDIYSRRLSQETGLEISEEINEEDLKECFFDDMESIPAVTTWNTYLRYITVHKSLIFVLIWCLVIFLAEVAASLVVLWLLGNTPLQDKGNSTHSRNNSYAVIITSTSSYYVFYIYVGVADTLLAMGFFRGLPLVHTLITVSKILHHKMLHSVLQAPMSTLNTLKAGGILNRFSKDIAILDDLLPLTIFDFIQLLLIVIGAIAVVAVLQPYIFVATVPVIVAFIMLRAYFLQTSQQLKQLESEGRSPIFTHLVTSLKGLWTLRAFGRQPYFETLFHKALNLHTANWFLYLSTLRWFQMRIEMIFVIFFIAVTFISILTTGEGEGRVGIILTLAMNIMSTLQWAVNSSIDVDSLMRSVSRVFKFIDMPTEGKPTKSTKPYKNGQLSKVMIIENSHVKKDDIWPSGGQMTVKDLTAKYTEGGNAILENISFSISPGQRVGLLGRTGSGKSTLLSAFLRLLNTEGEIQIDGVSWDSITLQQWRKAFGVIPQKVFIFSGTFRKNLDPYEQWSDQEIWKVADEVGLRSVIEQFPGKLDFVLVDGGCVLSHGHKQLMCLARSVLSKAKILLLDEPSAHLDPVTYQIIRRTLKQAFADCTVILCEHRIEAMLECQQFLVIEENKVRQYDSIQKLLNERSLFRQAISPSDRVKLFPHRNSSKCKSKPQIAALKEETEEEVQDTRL

Experiments:
Type in all cases: cell-based
CFTR ΔF508 = molecular target: T1, CFTR ΔF508 (Homo sapiens, UniProt P13569, DEL508-508); experiment: Chronic TECC assay, primary bronchial epithelial cells of CF patients homozygous for CFTR ΔF508 (corrector, co-corrector and potentiator)
T1 construct: bronchial epithelial cells isolated from CF patients homozygous for the CFTR ΔF508 mutation; McGill University; Asterand; University of North Carolina hAEC-CF; host or cells: primary human bronchial epithelial cells from CF patients homozygous for ΔF508, differentiated at air-liquid interface
Procedure: Primary Bronchial Epithelial Cells Protocol
The TECC (Tranepithelial Clamp Circuit, EP-design) assay measures the functionality of the cystic fibrosis Transmembrane Conductance regulator (CFTR) by measuring the short circuit current (Isc) generated over the basolateral and apical membrane of lung epithelial cells. In TECC the transepithelial potential PD and transepithelial resistance (Rt) are measured in an open circuit and transformed to Ieq using Ohm's law. 24 Wells can be measured simultaneously allowing a higher throughput compared to Ussing chambers.
For this purpose, bronchial epithelial cells isolated from CF patients homozygous for the CFTR ΔF508 mutation (hAEC-CF, Epithelix, Geneva, Switzerland; McGill University, Montreal, Qc; Asterand, Detroit, Mich.; University of North Carolina, Chapel Hill, N.C.) are plated on type IV collagen-coated Transwell® supports (Costar).
For electrophysiological recording of the “chronic” experiments, the human airway epithelia are mounted in the TECC heating plate for electrophysiological measurement and kept at 37° C. The epithelia are bathed in a NaCl-Ringer solution (120 mM NaCl, 25 mM NaHCO3, 1.2 mM CaCl2, 1.2 mM MgCl2, 0.8 mM KH2PO4, 0.8 mM K2HPO4, pH 7.4, 5 mM glucose) on both the basolateral and apical sides. […]

ΔF508-CFTR [1] = molecular target: T2, ΔF508-CFTR (Homo sapiens, UniProt P13569, DEL508-508); experiment: CFTR cell surface levels using HRP-tagged ΔF508-CFTR expressing CFBE cells, in the presence of a co-corrector; details: in the presence of 3 μM co-corrector
T2 construct: host or cells: CFBE41o-, doxycycline-inducible
Description: (§1) Measuring CFTR Cell Surface Levels Using HRP-Tagged ΔF508-CFTR Expressing CFBE Cells
(§2) The HRP-tagged ΔF508-CFTR cell assay measures the expression of CFTR-ΔF508 at the plasma membrane. CFTR-ΔF508 has a folding defect leading to absence of protein at the plasma membrane. This assay is used to evaluate the capacity of compounds to increase the expression of CFTR-ΔF508 at the plasma membrane. The CFTR-ΔF508 is tagged with HRP (horse radish peroxidase enzyme) within the ECL4 (Extracellular loop 4) of CFTR (Phuan, P.-W. et al. Synergy-based small-molecule screen using a human lung epithelial cell line yields ΔF508-CFTR correctors that augment VX-809 maximal efficacy. Mol. Pharmacol. 86, 42-51 (2014)). When HRP-tagged ΔF508-CFTR is present at the plasma membrane, the HRP enzyme activity can be measured. The amount of CFTR-ΔF508 that can be rescued to the plasma membrane is correlated with the amount of functional enzyme that can be measured.
(§3) There are several ways to measure the capacity of compounds to rescue CFTR-ΔF508 to the plasma membrane; either compounds are evaluated on their own and the impact on plasma membrane levels is measured or compounds are evaluated in combination with a co-corrector, i.e. a compound that rescues CFTR-ΔF508 to the plasma membrane but rescue can be enhanced by addition of compounds due to a complementary mode of action.
Activity of Compounds in Combination with Co-Corrector:
For this purpose doxycycline-inducible ΔF508-CFTR-HRP expressing CFBE4lo− cells (obtained from Gergely Lukacs, McGill University) were maintained in MEM (Minimum Essential Medium, Gibco; 31095) supplemented with 10% fetal bovine serum (Hyclone; SV30160.03) under puromycin (3 μg/mL) and G418 selection (0.2 mg/mL). For compound testing, cells were seeded at 4000 cells/well in white 384-well plates (Greiner; 781080) in 50 μL of medium containing 0.5 μg/mL doxycycline and incubated for 68 hours at 37° C., 5% CO2. On day four, 10 μL of test compounds diluted in PBS (phosphate buffered saline) were added to the plates at a final DMSO concentration of 0.1%. In order to measure compound synergy with a co-corrector, 3 μM co-corrector (3-[(2R,4R)-4-({[1-(2,2-difluoro-1,3-benzodioxol-5-yl)cyclopropyl]carbonyl}amino)-7-methoxy-3,4-dihydro-2H-chromen-2-yl]benzoic acid) was added along with test compounds. All compound plates contained negative controls (DMSO) and positive controls (3 μM co-corrector). Cell plates were incubated at 33° C., 5% CO2 for 20 hours. On day five, the cells were washed five times with phosphate-buffered saline, and HRP activity was assayed by the addition of 50 μL/well of HRP substrate (SuperSignal™ West Pico Chemiluminescent Substrate, Thermo Scientific; 34080). After incubation for 15 minutes in the dark, the chemiluminescence was measured using a plate reader (EnVision®, Perkin Elmer). Raw data were normalized to percentage activity values using the equation: 100×(Sample−Negative control)/(Positive control−Negative Control).

ΔF508-CFTR [2] = molecular target: T2, ΔF508-CFTR; experiment: CFTR cell surface levels using HRP-tagged ΔF508-CFTR expressing CFBE cells, intrinsic corrector capacity; details: HRP-tagged ΔF508-CFTR expressing CFBE41o- cells; compound alone (intrinsic corrector capacity); 20 hours at 33° C.
Description: as §1, §2, §3
Activity of Compounds for their Intrinsic Corrector Capacity:
For this purpose doxycycline-inducible ΔF508-CFTR-HRP expressing CFBE4lo− cells (obtained from Gergely Lukacs, McGill University) were maintained in MEM (Gibco; 31095) supplemented with 10% fetal bovine serum (Hyclone; SV30160.03) under puromycin (3 μg/mL) and G418 selection (0.2 mg/mL). For compound testing, cells were seeded at 4000 cells/well in white 384-well plates (Greiner; 781080) in 50 μL medium containing 0.5 μg/mL doxycycline and incubated for 68 hours at 37° C., 5% CO2. On day four, […] compounds diluted in PBS were added to the plates at a final DMSO concentration of 0.1%. All compound plates contained negative controls (DMSO) and positive controls ([…] corrector, 3-[(2R,4R)-4-({[1-(2,2-difluoro-1,3-benzodioxol-5-yl)cyclopropyl]carbonyl}amino)-7-methoxy-3,4-dihydro-2H-chromen-2-yl]benzoic acid). Cell plates were incubated at 33° C., 5% CO2 for 20 hours. On day five, the cells were washed five times with phosphate-buffered saline, and HRP activity was assayed by the addition of 50 μL/well of HRP substrate (SuperSignal™ West Pico Chemiluminescent Substrate, Thermo Scientific; 34080). After incubation for 15 minutes in the dark, chemiluminescence was measured using a plate reader (EnVision®, Perkin Elmer). Raw data were normalized to percentage activity values using the equation: 100×(Sample−Negative control)/(Positive control−Negative Control).

`CS(=O)(=O)NC(=O)c1cc(-c2ccc(N3CCC(C#N)CC3)nc2)c2c(C3CCC3)nn(-c3ccccc3)c2n1` [Compound 71, 4-[6-(4-cyanopiperidin-1-yl)pyridin-3-yl]-3-cyclobutyl-N-(methanesulfonyl)-1-phenyl-1H-pyrazolo[3,4-b]pyridine-6-carboxamide] showed an EC50 (CFTR ΔF508) of 19.5 nM.
`COCCS(=O)(=O)NC(=O)c1cc(N2CCC(COC)CC2)c2c(C3CCC3)nn(-c3ccccc3)c2n1` [Compound 256, 3-cyclobutyl-N-(2-methoxyethanesulfonyl)-4-[4-(methoxymethyl)piperidin-1-yl]-1-phenyl-1H-pyrazolo[3,4-b]pyridine-6-carboxamide] was tested, and the EC50 (ΔF508-CFTR [1]) was 147 nM and the EC50 (ΔF508-CFTR [2]) was 221 nM.
For `O=C(NS(=O)(=O)N1CCOCC1)c1cc(N2CCC(N3CCOCC3)CC2)c2c(C3CCC3)nn(-c3ccccc3)c2n1` [Compound 383, 3-cyclobutyl-N-(morpholine-4-sulfonyl)-4-[4-(morpholin-4-yl)piperidin-1-yl]-1-phenyl-1H-pyrazolo[3,4-b]pyridine-6-carboxamide], the EC50 (ΔF508-CFTR [1]) was 94.3 nM, the EC50 (ΔF508-CFTR [2]) was 150 nM and the EC50 (CFTR ΔF508; chronic TECC, AUC = full area under the curve upon forskolin stimulation, read-out: EC50 (nM) (AUC**)) was 2 nM.
Compound `CCS(=O)(=O)NC(=O)c1cc(N2CCC(N3CCOCC3)CC2)c2c(C3CCC3)nn(-c3ccccc3)c2n1` [Compound 437, 3-cyclobutyl-N-(ethanesulfonyl)-4-[4-(morpholin-4-yl)piperidin-1-yl]-1-phenyl-1H-pyrazolo[3,4-b]pyridine-6-carboxamide] has an EC50 (ΔF508-CFTR [1]) of 156 nM and an EC50 (ΔF508-CFTR [2]) of 257 nM.
Work on `CN(C(=O)c1cc(N2CCC(N3CCOCC3)CC2)c2c(C3CCC3)nn(-c3ccccc3)c2n1)S(C)(=O)=O` [Compound 656, 3-cyclobutyl-N-(methanesulfonyl)-N-methyl-4-[4-(morpholin-4-yl)piperidin-1-yl]-1-phenyl-1H-pyrazolo[3,4-b]pyridine-6-carboxamide] yielded an EC50 (ΔF508-CFTR [1]) of 71.5 nM and an EC50 (ΔF508-CFTR [2]) of 99.6 nM.
`CCS(=O)(=O)N(C)C(=O)c1cc(N2CCC(N3CCOCC3)CC2)c2c(C3CCC3)nn(-c3ccccc3)c2n1` [Compound 658, 3-cyclobutyl-N-(ethanesulfonyl)-N-methyl-4-[4-(morpholin-4-yl)piperidin-1-yl]-1-phenyl-1H-pyrazolo[3,4-b]pyridine-6-carboxamide] gave an EC50 (ΔF508-CFTR [1]) of 149 nM and an EC50 (ΔF508-CFTR [2]) of 252 nM.
